Literature values, collected in patent publication US9295653B2, “Controlled agglomeration” (Veloxis Pharmaceuticals A/S, priority 2001, dated 2016).
Some compounds may have been tested in ways that are not shown here.

Conditions: Table 1, Poorly-Soluble Drug Candidates; descriptive term

For `CCC(=O)N(c1ccccc1)C1CCN(CCc2ccccc2)CC1`, the “Solubility In Water” value is listed as “Sparingly”.
